Patent US20130261178A1, “PHENOXYPROPANOL DERIVATIVES AND THEIR USE IN TREATING CARDIAC AND CARDIOVASCULAR DISEASES” (priority 2010, published 2013)

Protein sequences, listed by entry. Tags and fused reporters are not part of them.
UniProt P07550, whole entry: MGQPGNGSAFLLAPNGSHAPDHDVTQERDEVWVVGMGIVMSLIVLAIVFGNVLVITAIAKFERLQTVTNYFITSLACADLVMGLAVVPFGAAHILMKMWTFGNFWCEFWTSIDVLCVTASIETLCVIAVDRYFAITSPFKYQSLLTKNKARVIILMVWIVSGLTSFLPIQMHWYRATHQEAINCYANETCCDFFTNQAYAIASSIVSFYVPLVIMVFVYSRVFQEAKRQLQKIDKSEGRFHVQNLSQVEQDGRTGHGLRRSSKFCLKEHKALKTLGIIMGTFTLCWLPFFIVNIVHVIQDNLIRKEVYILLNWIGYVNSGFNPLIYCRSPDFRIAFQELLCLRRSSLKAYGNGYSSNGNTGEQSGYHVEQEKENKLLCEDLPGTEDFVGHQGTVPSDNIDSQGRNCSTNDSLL
UniProt P08588, whole entry: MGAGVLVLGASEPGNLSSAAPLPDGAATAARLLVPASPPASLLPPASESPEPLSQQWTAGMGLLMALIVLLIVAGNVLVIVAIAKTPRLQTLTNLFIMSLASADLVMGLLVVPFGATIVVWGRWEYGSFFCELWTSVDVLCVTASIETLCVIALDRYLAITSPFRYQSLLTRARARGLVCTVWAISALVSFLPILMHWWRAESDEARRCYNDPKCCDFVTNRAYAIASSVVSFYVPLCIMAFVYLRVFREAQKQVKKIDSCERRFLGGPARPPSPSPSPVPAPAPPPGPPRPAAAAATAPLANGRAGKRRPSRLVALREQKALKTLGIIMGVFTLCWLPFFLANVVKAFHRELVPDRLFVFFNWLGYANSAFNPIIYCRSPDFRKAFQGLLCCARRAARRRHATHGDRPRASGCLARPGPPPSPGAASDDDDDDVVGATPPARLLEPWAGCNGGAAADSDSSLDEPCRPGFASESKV

Key:
[1] = target: T1, human beta2-adrenoceptor (Homo sapiens, UniProt P07550); assay: 3H-CGP12177 whole-cell binding, CHO cells expressing human beta2-adrenoceptor; details: 3H-CGP 12177 whole cell binding, mean ± s.e.mean
T1 construct: expressed in transfected cells; host or cells: CHO cells
Method: Selectivity of ligands for the three beta-adrenoceptors was assessed by whole-cell binding studies using ^3H-CGP12177 in CHO cells expressing the human beta1, beta2 or beta3-adrenoceptors respectively essentially as described by Baker (2005; Br. J Pharmacol: 144, 317-22). Values shown are KD values determined as described by Baker (2005).
The selectivity of a ligand is given by the ratio of beta-1 to beta-2 KD. Accordingly a difference of one in the logarithmic values thereof represents a 10-fold selectivity, a difference of 2 represents 100-fold selectivity and a difference of 3 represents 1000-fold selectivity etc.

[2] = target: beta1-adrenoceptor (Homo sapiens, UniProt P08588); assay: 3H-CGP12177 whole-cell binding, CHO cells expressing human beta1-adrenoceptor; parameters: expressed in transfected cells; host or cells: CHO cells; details: 3H-CGP 12177 whole cell binding, mean ± s.e.mean

Row | Beta 2 Log KD [1] | Compound | Beta 1 Log KD [2]
1 | −5.80 ± 0.03 | Cc1ccc(NC(=O)NCCNCC(O)COc2ccc(OCCOC3CCCC3)cc2)cc1 (centres unmarked) [47d] | 
2 | −5.54 ± 0.03 | O=C(NCCNCC(O)COc1ccc(OCCOC2CCCC2)cc1)Nc1ccccc1Cl (centres unmarked) [47k] | 
3 | −5.99 ± 0.04 | O=C(NCCNCC(O)COc1ccc(OCCOC2CCCC2)cc1)Nc1cccc(Br)c1 (centres unmarked) [47o] | 
4 | −5.96 ± 0.05 | O=C(NCCNCC(O)COc1ccc(OCCOC2CCCC2)cc1)Nc1ccccc1O (centres unmarked) [47t, 1-(2-(3-(4-(2-(Cyclopentyloxy)ethoxy)phenoxy)-2-hydroxypropylamino)ethyl)-3-(2-hydroxyphenyl)urea] | 
5 |  | N#Cc1cc(OCCOCC2CC2)ccc1OCC(O)CNCCNC(=O)Nc1ccc(O)cc1 (centres unmarked) [LK204-545] | −8.09 ± 0.04
